From PubChem BioAssay
The list is not random: actives were taken first. Their share in the collection is about 1.5%.
CASP6 VEID inh: caspase-6 (human) enzyme inhibition | AID 686996 | inhibition, % at 12.5 µM | 350,000 tested, 0.53% active | P55212 | purified caspase-6, Z-VEID-R110 cleavage fluorescence;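 active = mean inhibition across replicates at least about 35%, with every replicate also reaching that limit, limit read from the data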;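 note: 0% = median of neutral control wells and 100% = no fluorescence left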
Yeast UUG start: alters start codon recognition fidelity in yeast | S. cerevisiae UUG-firefly luciferase reporter, luminescence/redox ratio | activity score, % at 18.7 µM | hit rate 0.13% among 350,000 | AID 602363;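 active means replicate mean at a twofold rise or more, about +100% in these data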;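 further: firefly luciferase made from a UUG start codon reports start codon fidelity; reporter light over untreated wells divided by growth signal over untreated wells; some hits fall short of that in this replicate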
RAD54 inh: inhibitors of human RAD54 branch migration. 360,000 tested, 0.14% active. Q92698. RAD54 Holliday junction branch migration, FAM/BHQ fluorescence. inhibition, % at 10.4 µM;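 active = mean normalized replicate activity at least 40 and at least half of replicates scoring 40 or more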;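 note: 0% = median of neutral control wells and 100% = median of positive control wells; inhibitors cause a drop in the FAM fluorescence signal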
PglD inh: blocks C. jejuni PglD acetyltransferase activity; AID 602405; purified PglD enzyme, DTNB colorimetric CoA detection; inhibition, % at 12.5 µM; 360,000 tested, 0.098% active; in the data active = inhibition above about 16%, passing the limit was not always enough
GSIS activator: primary screen for activators of insulin secretion dependent on glucose, INS-1E cells, GLuc reporter luminescence | INS-1E GLuc reporter insulin secretion, 2-3 h | activation, % at 16.6 µM | 370,000 tested, 0.61% active;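 active = lowest replicate activation of at least 40%, so every replicate reaches that level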;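 note: 0% = median of neutral control wells and 100% = median of IBMX positive control wells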
RAD52 inh: inhibitors of human RAD52 DNA annealing; recombinant RAD52 DNA annealing, FRET fluorescence; 360,000 tested, 0.46% active; P43351; inhibition, % at 18.7 µM;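 active = every replicate showing at least 50% inhibition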
An asterisk follows results filed as active; i = inactive; x = not tested or not shown.

No. | compound | GSIS activator | RAD54 inh | PglD inh | Yeast UUG start | RAD52 inh | CASP6 VEID inh
1 | C=CCNc1ncnc2c1ncn2[C@H]1CN(Cc2cc(OC)c(OC)c(OC)c2)C[C@@H](CO)O1 | 41.7* | -5.7 | 2.3 | x | 11.0 | -3.8
2 | COC(=O)c1sccc1S(=O)(=O)NCc1ccc(S(N)(=O)=O)cc1 | 3.3 | 0.5 | -1.9 | 4.5 | -12.8 | 1.4
3 | Cc1cc(-c2cc(C)c(N)cc2C)c(C)cc1N | -7.9 | 8.0 | -14.4 | -11.7 | -13.1 | -1.8
4 | NC1=C(Br)C(=O)c2ccccc2C1=O | x | 7.4 | 0.2 | -28.4 | -10.3 | 74.7*
5 | Cc1cc2c(cc1C)C(=O)C(Br)=C(N)C2=O | -2.8 | -13.5 | -1.6 | -12.2 | -61.1 | 74.1*
6 | O=C1c2ccccc2C(=O)C1c1ccc(Br)cc1 | -26.4 | -8.7 | -1.0 | -20.0 | -4.5 | 2.7
7 | O=C(NNc1nc(-c2ccc(Cl)cc2)cs1)c1ccco1 | -2.9 | 2.7 | 5.1 | -19.2 | x | x
8 | CCOC(=O)c1cccc(Nc2ncnc3ccccc23)c1 | -10.2 | -4.4 | -2.7 | -19.9 | x | x
9 | Cc1ccc(CC(=O)Nc2ccncc2)cc1 | -5.7 | 9.8 | 0.0 | -3.6 | -5.9 | -1.6
10 | COc1ccc(OCCn2cc(/C=C(\C#N)C(=O)NCc3ccco3)c3ccccc32)cc1 | -1.1 | 9.0 | -4.1 | -9.0 | -35.5 | 1.7
11 | N#C/C(=C\c1cn(CCOc2ccccc2)c2ccccc12)C(=O)NCc1cccs1 | 98.8* | -10.4 | -8.2 | -7.7 | x | x
12 | N#C/C(=C\c1cn(Cc2ccccc2F)c2ccccc12)C(=O)NCc1ccco1 | 55.7* | x | x | x | x | x
13 | COc1ccc2c3c(n(C)c2c1)[C@H](CO)N(Cc1ccccn1)CC31CCN(C(=O)NC(C)C)CC1 | -1.3 | x | x | x | -159.7 | -1.8
14 | O=C1C=C(O)c2c(O)cc(O)c(O)c2C1=O | 13.5 | 1.3 | 2.3 | -13.3 | 2.2 | 70.7*
15 | O=C1c2ccccc2C(=O)c2c(O)c(O)cc(O)c21 | x | -15.6 | -3.6 | -12.0 | -17.8 | 40.9*
16 | Cc1ccc(C(=O)Oc2ccccc2N2C(=O)C3CCC(C)CC3C2=O)cc1 (configuration not stated) | x | 3.7 | -3.5 | -9.7 | x | x
17 | CCc1cc2ccc(OC)cc2nc1SCC(=O)Nc1cc(C)on1 | 48.4* | -2.9 | -10.1 | -3.4 | x | x
18 | COc1ccc(-c2nnc(SCC(=O)Nc3cc(C)on3)n2C)cc1OC | 65.5* | -0.4 | 1.2 | -12.2 | -12.0 | 2.6
19 | COC1=CC(=O)C(OC)=C(OC)C1=O | 43.6* | -3.2 | 3.3 | -16.1 | -1.0 | -1.2
20 | Cc1ccc(/C=C/C(=O)NC2CCCCCCC2)o1 | 57.8* | x | x | x | x | x
21 | CC(C)CCNc1nc(N)c([N+](=O)[O-])c(NCCO)n1 | 47.4 | -6.5 | 7.5 | -10.2 | -9.5 | -2.1
22 | CCC(C)Nc1nc(N)c([N+](=O)[O-])c(NCCO)n1 (configuration not stated) | 70.7* | x | x | x | -18.1 | 1.4
23 | CN1C(=O)/C(=C\c2ccncc2)SC1=Nc1ccccc1 | 66.7* | x | x | x | x | x
24 | CC1Oc2ccccc2N(CC(=O)NCc2ccccc2)C1=O (configuration not stated) | 18.3 | x | x | x | -16.7 | -4.2
25 | Cc1cc(C)n(CCNC(=O)C2CCC(=O)N(Cc3ccc(Cl)cc3)C2)n1 (configuration not stated) | 1.7 | 9.2 | -1.8 | 15.8 | -1.9 | 63.3*
26 | CS(=O)(=O)N1CCN(c2ccccc2NC(=O)c2ccco2)CC1 | 42.1* | -3.1 | -2.5 | -9.8 | 17.4 | x
27 | CCOC(=O)C1=C2c3cc(OC)c(OC)cc3CC(C)(C)N2C(=O)C1=O | 44.9* | 8.2 | 8.5 | -11.5 | -17.9 | 2.7
28 | Cc1cc(C(=O)Nc2nccs2)c2cc(F)ccc2n1 | -0.4 | x | x | x | -36.3 | 0.1
29 | Cc1ccc(NC(=O)c2sc(C)nc2C)c(C)c1 | 13.2 | x | x | x | -8.0 | 51.0*
30 | O=C(CCS(=O)(=O)c1ccc(Br)cc1)N1CCCCCC1 | 25.6 | 0.0 | -3.7 | -23.8 | -4.4 | 61.0*

Rewritten with one line to a screen: entries from further up.
17) CCc1cc2ccc(OC)cc2nc1SCC(=O)Nc1cc(C)on1
18) COc1ccc(-c2nnc(SCC(=O)Nc3cc(C)on3)n2C)cc1OC
19) COC1=CC(=O)C(OC)=C(OC)C1=O
Compound	17	18	19
GSIS activator	48.4*	65.5*	43.6*
RAD54 inh	-2.9	-0.4	-3.2
PglD inh	-10.1	1.2	3.3
Yeast UUG start	-3.4	-12.2	-16.1
RAD52 inh	x	-12.0	-1.0
CASP6 VEID inh	x	2.6	-1.2

Other entries follow:
No. | compound | GSIS activator | RAD54 inh | PglD inh | Yeast UUG start | RAD52 inh | CASP6 VEID inh
31 | CC(C)C#Cc1ccc([C@H]2[C@H](CO)N3C(=O)CN(C(=O)NC4CCCCC4)C[C@@H]23)cc1 | -4.1 | x | x | x | -7.6 | x
32 | CC(C)C#Cc1ccc([C@H]2[C@@H](CO)N3C(=O)CN(C(=O)NC4CCCCC4)C[C@@H]23)cc1 | -16.9 | x | x | x | 57.6* | -1.4
33 | CC(=O)N=Cc1c(C)c(C#N)c(=O)n(C)c1O | -1.6 | x | x | x | -74.1 | 31.0
34 | Cc1c(C=O)c(Cl)n(C)c(=O)c1C#N | 6.7 | x | x | x | i | 51.3*
35 | C[C@H](CO)N1C[C@H](C)[C@H](CN(C)Cc2ccc3c(c2)OCO3)Oc2ccc(NC(=O)Cc3cn(C)c4ccccc34)cc2C1=O | -6.2 | 5.8 | 2.4 | 9.2 | -1.8 | -1.5
36 | COc1ccc2c(c1)c(CCN1C(=O)c3ccccc3C1=O)cn2C(=O)c1ccco1 | -5.1 | -2.2 | -0.2 | -14.3 | -18.3 | 37.7*
37 | O=C(Oc1ccc2[nH]cc(CCN3C(=O)c4ccccc4C3=O)c2c1)c1ccco1 | -4.4 | x | x | x | 7.4 | -0.5
38 | C[C@@H]1CN([C@@H](C)CO)C(=O)c2c(c3ccccc3n2C)-c2ccccc2CO[C@H]1CN(C)C(=O)[C@@H](Cc1ccccc1)N(C)C | 4.6 | 4.9 | -4.4 | x | 25.7 | -0.5
39 | C[C@H]1CN([C@@H](C)CO)C(=O)c2c(c3ccccc3n2C)-c2ccccc2CO[C@H]1CN(C)C(=O)CCN(C)C | 19.7 | 6.5 | 3.4 | x | 50.6* | -1.1
40 | C[C@@H]1CN([C@H](C)CO)C(=O)c2c(c3ccccc3n2C)-c2ccccc2CO[C@@H]1CN(C)C(=O)[C@H](Cc1ccccc1)N(C)C | 15.6 | 1.0 | 2.8 | x | 51.1* | 1.7
41 | O=C(/C=C/c1ccccc1)N1CCOCC1 | 11.4 | -3.0 | 0.4 | -5.7 | -2.9 | 1.7
42 | O=C(/C=C/c1ccccc1)CCN1CCOCC1 | 52.4* | x | x | x | -2.1 | -2.2
43 | O=C(Nc1nccs1)c1cc(N2CCOCC2)nc2ccccc12 | 46.0* | -5.9 | -3.1 | -7.0 | x | x
44 | N#C/C(=C\c1ccc(-c2cccc([N+](=O)[O-])c2)o1)c1nnc(N2CCOCC2)n1-c1ccccc1 | -9.1 | x | x | x | -25.2 | 1.7
45 | O=C(CCN1CCN(c2ccccc2)CC1)N/N=C/c1ccc(O)c(O)c1O | -1.0 | -0.4 | 4.9 | -10.9 | -24.2 | 65.3*
46 | CCCN(Cc1nnc(-c2ccccc2Cl)o1)C(=O)c1cc2ccccc2o1 | 62.7* | 11.3 | -1.5 | 5.9 | -27.6 | 0.6
47 | CC(=O)Nc1ccc(NC(=O)C(C)OC(=O)c2ccc(S(=O)(=O)N3CCCCCC3)cc2)cc1 (configuration not stated) | x | 10.5 | 3.5 | -8.0 | -2.4 | -3.7
48 | CCn1nc(C)cc1C(=O)N1CCCC(N2CCN(Cc3ccc4c(c3)OCO4)CC2)C1 (configuration not stated) | 3.6 | -3.1 | -6.9 | -4.4 | 0.6 | -0.4
49 | O=C(O)c1cc(-c2ccco2)nn1-c1cccc(Cl)c1 | 7.7 | x | x | x | -28.7 | 45.6*
50 | O=C(O)c1cc(-c2ccco2)nn1-c1ccc(Cl)cc1 | 2.9 | x | x | x | -24.6 | 50.5*
51 | CCOC(=O)c1nc(SC)n(C)c1C(=O)OCC | 54.1* | -5.2 | 1.8 | 4.3 | -6.7 | 0.0
52 | COc1ccc2c3c(n(C)c2c1)[C@H](CO)NCC31CN(Cc2ccc(Cl)cc2)C1 | -3.7 | x | x | x | x | x

Sorted by the number under Yeast UUG start (lowest first): some entries from above.
| nr | structure | GSIS activator | PglD inh | Yeast UUG start | RAD52 inh | CASP6 VEID inh |
| --- | --- | --- | --- | --- | --- | --- |
| 43 | O=C(Nc1nccs1)c1cc(N2CCOCC2)nc2ccccc12 | 46.0* | -3.1 | -7.0 | x | x |
| 48 | CCn1nc(C)cc1C(=O)N1CCCC(N2CCN(Cc3ccc4c(c3)OCO4)CC2)C1 (configuration not stated) | 3.6 | -6.9 | -4.4 | 0.6 | -0.4 |
| 46 | CCCN(Cc1nnc(-c2ccccc2Cl)o1)C(=O)c1cc2ccccc2o1 | 62.7* | -1.5 | 5.9 | -27.6 | 0.6 |
